Laboratory results as given in patent US12409192B2, “Traditional Chinese medicine composition and use thereof” (JIANGSU KANION PHARMACEUTICAL CO., LTD, priority 2021, dated 2025).

Tests used:
[1] = tested on: xylene-induced ear swelling in mice; assay: Xylene-induced ear swelling in mice; format: in vivo, KM mice; details: oral once daily 5 days, composition 4.83 g crude drugs/kg, aspirin 0.20 g/kg, X ± SD, n = 10
Procedure: Male KM rats, weighing 180-220 g were fed adaptively for 4 days, with the environmental temperature maintained at 20-25° C. […] Mice in each group were orally gavaged once daily for 5 consecutive days. One hour after the final administration, 0.03 ml of xylene was applied to both sides of the right ear of each mouse, while the left ear served as a control. One hour later, the mice were euthanized by cervical dislocation, and 8 mm ear punches were taken from the same location on both ears of each mouse. The ear punches were weighed precisely, and the difference in weight between the right and left ears was calculated as the degree of swelling.

[2] = tested on: ammonia-induced cough in mice; assay: Ammonia solution-induced cough in mice; details: oral once daily 5 days, composition 4.83 g crude drug/kg, promethazine hydrochloride 1.79 mg/kg, X ± SD, n = 10
[3] = verification study, batches P-V

SMILES | Degree of swelling ([1]; right minus left ear punch weight, 1 h after xylene) [g] | Degree of ear swelling [1, 3] [g] | Cough latency period [2] [s] | Cough latency period [2, 3] [s]
CC(=O)Oc1ccccc1C(=O)O [Aspirin, aspirin] | 0.0076 ± 0.0042 | 0.0071 ± 0.0038 |  | 
CC(CN1c2ccccc2Sc2ccccc21)N(C)C (stereo not shown) [Promethazine hydrochloride, promethazine hydrochloride] |  |  | 50.37 ± 8.88 | 49.82 ± 8.51

Structures can show the parent of a compound that is named as a salt.
